Source: publication PMC2653189 (PLoS ONE, 2009)

By UniProt entry, the sequences of proteins in these tests, tags left out.
UniProt P40763, whole entry, species assumed: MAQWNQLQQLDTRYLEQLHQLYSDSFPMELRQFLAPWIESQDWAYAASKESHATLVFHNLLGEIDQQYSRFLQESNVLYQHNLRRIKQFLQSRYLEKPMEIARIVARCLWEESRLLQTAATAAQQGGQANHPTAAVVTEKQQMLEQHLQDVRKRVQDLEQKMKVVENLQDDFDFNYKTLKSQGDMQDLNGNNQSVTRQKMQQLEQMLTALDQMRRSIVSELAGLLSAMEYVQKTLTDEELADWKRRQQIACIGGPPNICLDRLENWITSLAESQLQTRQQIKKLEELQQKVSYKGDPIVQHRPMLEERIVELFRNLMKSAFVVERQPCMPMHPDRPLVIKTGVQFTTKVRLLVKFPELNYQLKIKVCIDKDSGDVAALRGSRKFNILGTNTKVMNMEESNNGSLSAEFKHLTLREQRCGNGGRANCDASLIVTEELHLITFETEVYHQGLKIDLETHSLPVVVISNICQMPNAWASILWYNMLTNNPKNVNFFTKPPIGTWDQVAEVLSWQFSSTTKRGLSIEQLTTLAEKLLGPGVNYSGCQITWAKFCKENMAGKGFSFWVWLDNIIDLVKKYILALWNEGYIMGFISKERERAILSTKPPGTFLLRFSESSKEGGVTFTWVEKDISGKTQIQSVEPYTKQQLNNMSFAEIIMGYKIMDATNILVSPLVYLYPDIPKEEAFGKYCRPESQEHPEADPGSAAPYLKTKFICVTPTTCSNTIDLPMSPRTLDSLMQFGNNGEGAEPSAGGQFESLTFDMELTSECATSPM

Biological target: Stat3 (Homo sapiens, UniProt P40763)
Experiment: Stat3/pY-peptide binding assay (SPR, BIAcore)
Conditions: recombinant Stat3 500 nM; immobilized EGFR Y1068 phosphododecapeptide; 25°C; read-out: SPR IC50, inhibition of Stat3 binding to pY peptide ligand
Description: A control (Stat3 with DMSO but without compound) was run at the beginning and the end of each cycle (40 sample injections) to ensure that the integrity of the sensor chip was maintained throughout the cycle run. The average of the two controls was normalized to 100% and used to evaluate the effect of each compound on Stat3 binding. Responses were normalized by dividing the value at 2 min by the response obtained in the absence of compounds at 2 min and multiplying by 100.

| IC50 [µM] | SMILES |
| --- | --- |
| 137 | COC(=O)Cc1c(C)c2ccc(OCc3ccc(C(=O)OC)cc3)c(C)c2oc1=O [Cpd3-7, methyl 4-({[3-(2-methoxy-2-oxoethyl)-4,8-dimethyl-2-oxo-2H-chromen-7-yl]oxy}methyl)benzoate] |
| 30 | CCN1C(=O)C(=Cc2ccc(-c3ccc(C(=O)O)cc3)o2)SC1=S [Cpd30, 4-{5-[(3-ethyl-4-oxo-2-thioxo-1,3-thiazolidin-5-ylidene)methyl]-2-furyl}benzoic acid] |
| 20 | O=C(O)CSc1cc(NS(=O)(=O)c2ccc(C(=O)O)cc2)c2ccccc2c1O [Cpd188, 4-[({3-[(carboxymethyl)thio]-4-hydroxy-1-naphthyl}amino)sulfonyl]benzoic acid] |
